Source: ChEMBL document CHEMBL6153175, “Discovery of Isobenzofuran-1(3H)-one Derivatives as Selective TREK-1 Inhibitors with In Vitro and In Vivo Neuroprotective Effects” (J Med Chem, 2025)

Molecular target: T1, Potassium channel subfamily K member 2 (Homo sapiens, UniProt O95069)
T1 sequence (O95069 whole entry): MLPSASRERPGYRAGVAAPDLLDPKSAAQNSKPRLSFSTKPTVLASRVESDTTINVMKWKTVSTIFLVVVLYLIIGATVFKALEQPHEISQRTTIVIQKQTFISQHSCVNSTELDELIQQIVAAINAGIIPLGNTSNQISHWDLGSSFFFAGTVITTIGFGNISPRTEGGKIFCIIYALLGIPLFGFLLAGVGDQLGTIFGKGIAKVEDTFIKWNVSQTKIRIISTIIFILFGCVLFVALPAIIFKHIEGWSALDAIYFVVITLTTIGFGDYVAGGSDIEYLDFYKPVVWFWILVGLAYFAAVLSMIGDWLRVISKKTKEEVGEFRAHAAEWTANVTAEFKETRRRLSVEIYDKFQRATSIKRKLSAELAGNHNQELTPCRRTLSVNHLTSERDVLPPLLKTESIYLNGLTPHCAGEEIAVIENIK
Assay: Inhibition of human TREK1 channel expressed in HEK293 cells cotransfected with EYFP at -80 mV holding potential by whole-cell patch clamp assay
Type: cell-based

OCCN1CCN(CC/C=C2/c3ccccc3Sc3ccc(C(F)(F)F)cc32)CC1 [Z-FLUPENTIXOL]
IC50: 1800 nM
